Laboratory results published in published antibiotic growth screens (doi:10.1038/s41589-023-01349-8).
Some of the results follow.

What follows are compounds tested on A. baumannii ATCC 17978 (assay: relative growth (fraction of control); higher = less inhibition). Conditions: 50 µM.

SMILES | relative growth
C[C@H]1[C@H]([Si](C)(C)F)[C@@H](CCn2cc([C@H](O)c3ccccc3)nn2)O[C@]12C(=O)N(c1ccccc1)c1ccccc12 | 0.907
C[C@@H]1CN([C@@H](C)CO)S(=O)(=O)c2ccc(-c3ccc(C(=O)N(C)C)cc3)cc2O[C@H]1CN(C)C(=O)C1CCOCC1 | 0.985
CC(=O)O[C@@H]1CC[C@@]2(C)C(C[C@@H](OC(C)=O)[C@@]3(C)C4=CC(=O)O[C@@H](c5ccoc5)[C@]4(C)CCC23)C1(C)C (stereo partly drawn) [3alpha-ACETOXYDIHYDRODEOXYGEDUNIN] | 0.956
C[C@H](CO)N1C[C@H](C)[C@H](CN(C)C(=O)C2CCOCC2)Oc2ncc(C#CC3(O)CCCC3)cc2C1=O | 0.905
COc1cc2c(cc1OC)C(=O)NCC2 | 1.01
C[C@H]1CN([C@@H](C)CO)S(=O)(=O)c2ccc(-c3cncnc3)cc2O[C@@H]1CN(C)C(=O)Cc1ccncc1 | 1.12
C=C(C)[C@H]1COc2cc3oc(=O)ccc3cc2O1 | 0.988
NCc1ccc(-c2ccccc2O)cc1 | 0.922
NCCCCCc1nc2ccccc2[nH]1 | 0.866
CO[C@@H]1CN(C)C(=O)c2cc(NS(=O)(=O)CC(F)(F)F)ccc2OC[C@H](C)N(Cc2ccccn2)C[C@H]1C | 1.11
COc1ccccc1S(=O)(=O)N[C@@H]1CC[C@H](CCNC(=O)C2CC2)O[C@H]1CO | 0.969
O=C(CCCCCC(=O)N/N=C/[C@H](O)[C@H](O)[C@@H](O)[C@@H](O)CO)NO | 0.895
NNC(=O)COc1ccccc1 | 0.829
CN1CCN(C(=O)C[C@@H]2C=C[C@@H](NC(=O)c3ccc4c(c3)OCO4)[C@H](CO)O2)CC1 | 1.02
CO[C@H]1O[C@H](CO)[C@@H](OC(=O)Nc2ccc(Oc3ccccc3)cc2)[C@H](OC(=O)Nc2ccccc2-c2ccccc2)[C@@H]1OC(=O)Nc1ccccc1-c1ccccc1 | 1.11
O=C(O)CSCC(=O)N[C@H]1CCSC1=O | 0.836
O=C(CN1CCOCC1)NCC[C@H]1CC[C@@H](NC(=O)Nc2ccccc2)[C@H](CO)O1 | 0.897
NS(=O)(=O)c1ccc(CCn2ccn(CC(=O)NCCC3=CCCCC3)c(=O)c2=O)cc1 | 1.18
CC(C)NCC(O)c1ccc(O)c(O)c1.Cl (stereo unspecified) | 0.934

SMILES | relative growth
O=C(CN1CCOCC1)N[C@H]1CC[C@H](CCNS(=O)(=O)c2ccccc2F)O[C@@H]1CO | 1.01
CNC(=O)Cn1c(=O)c2c(OC)c(C)cnc2n(C)c1=O | 1.17
C[C@H]1CN([C@@H](C)CO)C(=O)c2cc(-c3cncnc3)cnc2O[C@@H]1CN(C)C(=O)CN1CCOCC1 | 0.952
CN1CCN(C(=O)C[C@@H]2CC[C@H]3[C@@H](COC[C@@H](O)CN3C(=O)C3CCCC3)O2)CC1 | 0.962
CCOC(=O)C[n+]1ccccc1C | 0.857
NC(=O)N1c2ccccc2CC(=O)c2ccccc21 | 0.938
COCC#Cc1ccc2c(c1)O[C@@H](CN(C)Cc1ccc(F)cc1)[C@@H](C)CN([C@@H](C)CO)S2(=O)=O | 0.922
O=C(NO)c1ccc(C(=O)N/N=C/[C@H](O)[C@@H](O)[C@@H](O)[C@H](O)C(=O)O)cc1 | 0.943
C[C@H]1CN([C@@H](C)CO)S(=O)(=O)c2ccc(C#CC3(O)CCCC3)cc2O[C@@H]1CN(C)C(=O)Cc1ccncc1 | 0.881
CN(C)CC(=O)N[C@H]1CC[C@H](CCNC(=O)C2CCC2)O[C@@H]1CO | 1.06
O=C(C[C@@H]1C=C[C@H](NC(=O)Cc2ccccn2)[C@@H](CO)O1)NCCCN1CCOCC1 | 0.971
C=C[C@](C)(O)CC[C@@H]1[C@@]2(C)CCCC(C)(C)[C@@H]2CC[C@]1(C)O | 1.21
C/C(=N\N)c1c(C)cc(C)[nH]c1=O | 0.94
COc1ccc(C(=O)NC(CO)(CO)CO)cc1OC | 1.04
CN1C(=O)C[C@H](Nc2ccc(N(C)C)cc2)C1=O | 0.856
CC(=O)N[C@H]1CC[C@H](CCNC(=O)C2CC2)O[C@@H]1CO | 1.06
CN1C(=S)N[C@@H]2CS(=O)(=O)C[C@@H]21 | 0.915
O=C(C[C@H]1C=C[C@H](NC(=O)CN2CCOCC2)[C@H](CO)O1)NCCc1ccccc1 | 0.949
CC(=O)OCC(=O)[C@@]12N=C(C)O[C@@H]1CC1C3CCC4=CC(=O)C=C[C@]4(C)C3[C@@H](O)C[C@@]12C (stereo partly specified) | 0.931

SMILES | relative growth
C[C@H](CO)N1C[C@H](C)[C@@H](CN(C)S(=O)(=O)c2ccccc2F)Oc2ncc(C#Cc3ccccc3F)cc2C1=O | 1.05
Cc1ccc2nc(SCc3c(C)c(C)cc(C)c3C)[nH]c2c1 | 1.12
Cc1cc(NC2CCCCC2)ncn1 | 0.978
CC(NCCC(c1ccccc1)c1ccccc1)c1ccccc1.Cl (stereo unspecified) | 0.882
CO[C@@H]1CN(C)C(=O)c2ccc(NS(C)(=O)=O)cc2OC[C@@H](C)N(C(=O)CN(C)C)C[C@@H]1C | 1.06
CCOC(=O)C1=C(C)NC(=O)N[C@@H]1C | 1.1
CC1(C)S[C@H]2[C@@H](NC(=O)[C@@H](N)c3ccccc3)C(=O)N2[C@@H]1C(=O)O | 1.06
O=C(NCc1ccncc1)C(=O)NC[C@H]1OCCN1S(=O)(=O)c1ccc(F)cc1 | 0.911
COc1ccc(S(=O)(=O)N[C@@H]2C=C[C@H](CC(=O)N3CCN(c4ccccc4)CC3)O[C@@H]2CO)cc1 | 0.98
O=C(N[C@@H]1CC=CC[C@H](CC(=O)N(CCO)Cc2ccccc2)C(=O)NCC(c2ccccc2)OC1=O)OCC1c2ccccc2-c2ccccc21 (stereo partly specified) | 0.923
CC(C)(C)C(=O)Nc1ccccc1F | 0.94
COc1cccc(C#Cc2ccc3c(c2)O[C@@H](CN(C)S(=O)(=O)c2ccccc2F)[C@H](C)CN([C@H](C)CO)S3(=O)=O)c1 | 1.26
c1ccc(-c2cccs2)cc1 | 0.96
Cn1cnc(CCNC(=O)C[C@H]2CC[C@@H]3[C@H](COC[C@H](O)CN3C(=O)Nc3ccc(C(F)(F)F)cc3)O2)c1 | 1.03
Nc1nonc1N1CCCCC1 | 0.899
COCC(=O)Nc1ccc2c(c1)C(=O)N(C)C[C@H](OC)[C@@H](C)CN(Cc1cccc(F)c1)[C@H](C)CO2 | 0.973
COc1ccc2nc(S(=O)Cc3ncc(C)c(OC)c3C)[nH]c2c1 (stereo unspecified) | 1.01
O=C(C[C@H]1CC[C@H]2[C@@H](COC[C@H](O)CN2S(=O)(=O)c2cccc(Cl)c2)O1)N1CCOCC1 | 1.01
